Assay results from PubChem BioAssay AID1422 (Emory University Molecular Libraries Screening Center, 2008).
Where “and” joins values, the source holds several entries; their conditions need not be identical. Equal values may be shown once. This is a selection; strong and weak results do not stand in their true shares. Calls of active or inactive are those of the source.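 The calls were made as follows: active = percent inhibition above 40 after rounding to a whole number; inactive = the rest.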

By UniProt entry, the sequences of proteins in these tests, tags left out. Where a name states a change or a piece, a line headed by the entry shows the natural chain unless it says otherwise.
UniProt P43116: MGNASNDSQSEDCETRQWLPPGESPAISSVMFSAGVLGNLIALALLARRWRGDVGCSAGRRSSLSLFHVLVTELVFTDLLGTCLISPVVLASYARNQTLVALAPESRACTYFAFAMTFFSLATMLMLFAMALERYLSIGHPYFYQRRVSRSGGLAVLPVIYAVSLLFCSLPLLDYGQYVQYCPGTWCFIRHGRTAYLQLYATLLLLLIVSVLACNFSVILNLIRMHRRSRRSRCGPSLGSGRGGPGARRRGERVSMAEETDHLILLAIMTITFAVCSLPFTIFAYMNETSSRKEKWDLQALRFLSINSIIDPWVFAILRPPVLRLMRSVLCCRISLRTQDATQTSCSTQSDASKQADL

These compounds were tested against Prostaglandin E2 receptor EP2 subtype (Homo sapiens) (UniProt P43116) (assay: blockers of PGE2-driven EP2 cAMP signalling – TR-FRET cAMP, C6 glioma cells, primary screen (AID 1422;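 also: rat C6 glioma host cells with rolipram phosphodiesterase inhibitor present; the protocol text gives 20 µM as final concentration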)). Conditions: C6 glioma cells expressing human EP2, cAMP TR-FRET; at 25 µM; active compounds read high; cells stimulated with saturating PGE2.

inhibition, active:
COc1cc(NS(=O)(=O)c2ccc(NC(=S)NC(=O)/C=C/c3ccc(F)cc3)cc2)ncn1 83.8%
COc1cc(NS(=O)(=O)c2ccc(NC(=S)NC(=O)c3cccs3)cc2)nc(OC)n1 89.5% and 71.7%
CCc1nnc(NS(=O)(=O)c2ccc(NC(=S)NC(=O)/C=C/c3ccccc3)cc2)s1 89.7%
COc1cc(/C=C/C(=O)NCCn2c(C)cc3ccccc32)cc(OC)c1OC 120%
CCc1nnc(NS(=O)(=O)c2ccc(NC(=S)NC(=O)/C=C/c3cccs3)cc2)s1 82.1% and 51.6%
CCc1nnc(NS(=O)(=O)c2ccc(NC(=S)NC(=O)c3ccc(OC)cc3)cc2)s1 72.6%
